Data taken from ChEMBL document CHEMBL1221272, “Discovery and structure-activity relationships of a series of pyroglutamic acid amide antagonists of the P2X7 receptor” (Bioorg Med Chem Lett, 2010).

Amino acid sequences for entries named in this document (tags omitted). A change or cut given only in a name is not applied to a line headed by its entry.
UniProt Q99572: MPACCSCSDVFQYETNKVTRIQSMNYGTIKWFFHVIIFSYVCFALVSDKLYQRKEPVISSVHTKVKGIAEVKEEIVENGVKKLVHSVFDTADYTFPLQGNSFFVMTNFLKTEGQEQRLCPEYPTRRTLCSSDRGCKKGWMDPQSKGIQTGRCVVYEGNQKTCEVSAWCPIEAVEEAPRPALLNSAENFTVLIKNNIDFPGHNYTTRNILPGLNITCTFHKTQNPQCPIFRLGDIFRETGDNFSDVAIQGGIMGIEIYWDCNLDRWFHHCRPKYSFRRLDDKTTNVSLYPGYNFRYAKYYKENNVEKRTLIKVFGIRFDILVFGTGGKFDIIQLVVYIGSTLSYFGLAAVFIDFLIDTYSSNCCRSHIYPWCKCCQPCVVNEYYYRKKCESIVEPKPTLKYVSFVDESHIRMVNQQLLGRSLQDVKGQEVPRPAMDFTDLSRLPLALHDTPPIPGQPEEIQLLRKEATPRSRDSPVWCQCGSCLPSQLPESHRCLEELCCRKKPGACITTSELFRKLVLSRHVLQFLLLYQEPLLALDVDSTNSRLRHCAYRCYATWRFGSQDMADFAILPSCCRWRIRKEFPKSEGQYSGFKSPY

What follows are compounds tested against P2X purinoceptor 7 (Homo sapiens, UniProt Q99572).

Structure (SMILES)	IC50 [nM]
CCN1C(=O)CC[C@H]1C(=O)NCc1cccc(Cl)c1	< 1000
O=C(NCc1ccc(F)cc1Cl)[C@@H]1CCC(=O)N1Cc1ccccc1	< 1000
CCN1C(=O)CC[C@H]1C(=O)NCc1cccc(Cl)c1Cl	12.6
CCN1C(=O)CC[C@H]1C(=O)NCc1ccc(Cl)cc1Cl	6.31
CCN1C(=O)CC[C@H]1C(=O)NCc1cccc(C(F)(F)F)c1Cl	1.58
O=C(NCc1ccc(F)cc1Cl)[C@@H]1CCC(=O)N1C1CCC1	25.1
